# Measured affinities in a library of Ab-14 heavy chain variants

Target: peptide PDVDLGDISGINAS, taken from heptad repeat 2 (HR2) of SARS-CoV-2 spike.

The variants keep the light chain, the linker and the frameworks of Ab-14 (scFv order VH, a 15-residue (Gly4Ser)3 linker, VL).
VH: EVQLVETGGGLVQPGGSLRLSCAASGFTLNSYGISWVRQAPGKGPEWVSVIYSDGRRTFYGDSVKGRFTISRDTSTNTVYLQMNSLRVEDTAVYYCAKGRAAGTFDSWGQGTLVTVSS
VL: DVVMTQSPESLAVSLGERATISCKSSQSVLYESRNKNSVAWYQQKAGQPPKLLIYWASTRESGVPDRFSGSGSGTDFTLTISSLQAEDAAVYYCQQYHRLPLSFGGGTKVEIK

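The starting antibody came from a phage panning campaign against this peptide. Library AAYL49 holds single substitutions and randomly drawn double and triple substitutions in the CDRs. AlphaSeq pools MATa yeast showing the antibodies with MATalpha yeast showing the peptide. Mating (16 h, 30 °C) was followed by selection of diploids and sequencing of their barcodes. A regression on co-assayed BCL2-family reference pairs converts the normalised counts of each replicate to an apparent Kd. Each pool was mated in three replicate cultures.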

The parent's heavy chain CDRs are GFTLNSYGIS, VIYSDGRRTFYGDSVK, GRAAGTFDS; each variant's own CDRs replace them letter for letter. Affinities are written as log10 Kd with Kd in nM; a lower number is a better binder. Averages over replicates are reported, and they cover detected replicates only. A pair that was not seen in that replicate is written "nd"; this usually means weak binding, but a binder can also be missed.

CDR-H1,CDR-H2,CDR-H3,log10 Kd (nM) by replicate,mean log10 Kd (nM),signal with controls
GFTLNSKGIS,VIYSDGRRTFYVDSVK,GRAAGPFDS,nd nd nd,nd,0 of 9
GFTLNLYGIS,VINSDGRRTFYPDSVK,GRAAGTFDS,nd nd nd,nd,1 of 9 (4.42)
GFTLNSYGIS,VIYSDGRRTFYGDSVV,GRAAFRFDS,nd nd 3.56,3.56,0 of 9
GFTLNSYGKW,VIYSDYRRTFYGDSVK,GRAAGTFDS,nd nd nd,nd,1 of 9 (3.51)
GETLNSYGIS,VIYSDGRRTFYGDSVI,GRMAGTFDS,3.06 3.21 2.70,2.99,0 of 9
GFTLNSYMIS,VIYSDGRRTFYHDSVK,GRAAGWFDS,nd 3.93 5.39,4.66,4 of 9 (5.01)
GFTLNSYGIS,VIYSYGERTFYGDSVK,GRAAGTFES,nd nd 3.20,3.20,1 of 9 (3.78)
GFTLNSYGIE,VIYSDGRRTFYGDSEP,GRAAGTFDS,5.51 3.50 nd,4.51,8 of 9 (4.36)
GFTLNSYGIS,VIYSDARRTFYGDSVK,GRYACTFDS,5.64 4.02 3.44,4.37,3 of 9 (4.68)
GFTLNSYGIS,VIYSDGRRTFYGDCVK,GSAAGTFDK,3.03 2.99 3.10,3.04,6 of 9 (4.39)
GFALNSYGIP,VIYSDGRRTFYGDSVK,GRAAGTFDN,nd 4.82 nd,4.82,1 of 9 (3.96)
GFTLNSYNIS,VIYSDGRRTFTGDSVK,GRAAGLFDS,3.43 nd nd,3.43,1 of 9 (4.31)
GFTLNSYWIS,VIYSDGRDTFYGDWVK,GRAAGTFDS,4.93 4.11 5.01,4.68,8 of 9 (4.79)
GFTLNSYGRV,VYYSDGRRTFYGDSVK,GRAAGTFDS,nd nd nd,nd,1 of 9 (3.55)
GFTLPSYGIS,VIYSDGRRTFYGDSVK,GRAAGTLQS,4.14 4.05 5.73,4.64,4 of 9 (4.40)
GFTLNSYGDS,VIYSDGRRTFYGDSVK,ARAAGLFDS,nd nd 5.58,5.58,1 of 9 (4.18)
GFTLNSYGIY,VIYSDGRRTFYGDYVK,GPAAGTFDS,nd nd nd,nd,0 of 9
NFTLNSYGIS,VIYSDGRRTFYSDSVK,GRAAGQFDS,1.96 1.67 1.85,1.83,3 of 9 (3.70)
GFTLNSYGIS,VIYSDGRRTCYGDSVK,GRAAGTFGS,3.05 2.34 2.78,2.72,3 of 9 (3.63)
GFTLNSYGIS,MIYSDGRVTYYGDSVK,GRAAGTFDS,nd 2.30 nd,2.30,1 of 9 (4.57)
GFALNSYGIS,VIYSDGRRSFYGDSVK,GRAAGTFDC,nd nd nd,nd,0 of 9
GFTLNCYGIS,VIYYDGRRTFYGDSVK,GPAAGTFDS,2.78 3.32 3.30,3.13,0 of 9
GFTLNCYAIS,VHYSDGRRTFYGDSVK,GRAAGTFDS,nd nd 3.38,3.38,1 of 9 (3.45)
GFTLISYGIM,VIYSDGRRTFYGISVK,GRAAGTFDS,nd nd nd,nd,2 of 9 (3.04)
GFTLNSYGIT,VIYSDGRATFYGDSVK,GPAAGTFDS,nd nd nd,nd,0 of 9
GFTLNSYGVS,VIYSDGRRTFYGDSVK,GRAAGYMDS,nd nd 5.17,5.17,1 of 9 (4.73)
GFGLNSYGIS,LIYSDGRRTRYGDSVK,GRAAGTFDS,nd nd 3.34,3.34,3 of 9 (4.51)
GFTLNSYGIS,VIGSDGRRTFYGDLVK,LRAAGTFDS,nd 4.58 nd,4.58,3 of 9 (4.21)
GFTLNSYGIS,VIYSDGRRTMYGDSKK,GRAAGTFDS,nd nd nd,nd,5 of 9 (4.55)
GFGLNSYGIS,VIESDGRRTFYGDSVN,GRAAGTFDS,4.62 nd 4.50,4.56,1 of 9 (4.01)
GQTLNSYGIS,VIYSDGRRTFYGDAVK,GRAAGTFDG,nd 4.45 nd,4.45,2 of 9 (3.06)
GFTLNSYGIS,VIYSDGASTFYGDSVK,GRAAGTFDS,nd nd nd,nd,0 of 9
GFYLNSYGIQ,VIYSDGRRTFYGDSVK,GRAGGTFDS,3.01 nd nd,3.01,0 of 9
GFTLNSYGIS,VIYSDGRRTWYGDSVL,GRWAGTFDS,1.85 1.47 1.70,1.67,5 of 9 (3.58)
GFTLNSYGIS,MIYSDGRRTFYGCSVK,GRAAHTFDS,nd nd nd,nd,1 of 9 (3.49)
GFTLNLYGIS,VIYSDGFRTFYGDSVK,GRAAGTFIS,2.16 2.02 2.43,2.20,0 of 9

5 of these entries, quoted again:

| CDR-H1 | CDR-H2 | CDR-H3 | log10 Kd (nM) by replicate | mean log10 Kd (nM) | signal with controls |
|---|---|---|---|---|---|
| GFTLNSYGIS | VIYSDARRTFYGDSVK | GRYACTFDS | 5.64 4.02 3.44 | 4.37 | 3 of 9 (4.68) |
| GFTLNSYGIS | VIYSDGRRTCYGDSVK | GRAAGTFGS | 3.05 2.34 2.78 | 2.72 | 3 of 9 (3.63) |
| GFTLNSYWIS | VIYSDGRDTFYGDWVK | GRAAGTFDS | 4.93 4.11 5.01 | 4.68 | 8 of 9 (4.79) |
| NFTLNSYGIS | VIYSDGRRTFYSDSVK | GRAAGQFDS | 1.96 1.67 1.85 | 1.83 | 3 of 9 (3.70) |
| GFTLNSYGIS | VIYSDGRRTFYGDSVV | GRAAFRFDS | nd nd 3.56 | 3.56 | 0 of 9 |

Nonspecific signal, from three strains lacking the peptide, appeared in 15% of pairings of library AAYL49, centred on 4.06 (5% of these signals below 2.83); values are not corrected for it. The control count says in how many pairings with the empty strains this scFv gave a signal, with their mean in brackets.

Reference: Engelhart et al. 2022, doi:10.1038/s41597-022-01779-4. File: FLAb, binding data.